In US12616203B2, “Use of 3-isoxazolidinones compounds as selective herbicides” (FMC Corporation, priority 2014, dated 2026):

Tested on: weeds; Oilseed rape
Conditions: PRE, 28 DAT, rate in the words

CC1(C)CON(Cc2ccc(Cl)cc2Cl)C1=O [2,4-DC, 2-(2,4-dichlorophenyl)methyl-4,4-dimethyl-3-isoxazolidinone]
weed control / crop safety in words: alone at any rate did not able to control any species except common chickweed

COCCN(C(=O)CCl)c1c(C)cccc1C [Dimethachlor, dimethachlor]
weed control / crop safety in words: controlled only two species, Italian ryegrass and corn poppy

Cc1cccc(C)c1N(Cn1cccn1)C(=O)CCl [Metazachlor, metazachlor]
weed control / crop safety in words: controlled all weeds except tall morningglory and wild mustard

CCN(CC)C(=O)C(C)Oc1cccc2ccccc12 (stereo not shown) [napropamide, reference compound]
weed control / crop safety in words: controlled Italian ryegrass, wild buckwheat, redroot pigweed, common chickweed, and corn poppy
